Data on 6 molecules can be found in patent publication US6635771B2, “N-benzhydryl indole compounds” (Wyeth, priority 2001, dated 2003).

SMILES strings stand for the structures.

This assay deals with T1, cPLA2 (Homo sapiens, UniProt P47712).
T1 sequence (P47712 1-749): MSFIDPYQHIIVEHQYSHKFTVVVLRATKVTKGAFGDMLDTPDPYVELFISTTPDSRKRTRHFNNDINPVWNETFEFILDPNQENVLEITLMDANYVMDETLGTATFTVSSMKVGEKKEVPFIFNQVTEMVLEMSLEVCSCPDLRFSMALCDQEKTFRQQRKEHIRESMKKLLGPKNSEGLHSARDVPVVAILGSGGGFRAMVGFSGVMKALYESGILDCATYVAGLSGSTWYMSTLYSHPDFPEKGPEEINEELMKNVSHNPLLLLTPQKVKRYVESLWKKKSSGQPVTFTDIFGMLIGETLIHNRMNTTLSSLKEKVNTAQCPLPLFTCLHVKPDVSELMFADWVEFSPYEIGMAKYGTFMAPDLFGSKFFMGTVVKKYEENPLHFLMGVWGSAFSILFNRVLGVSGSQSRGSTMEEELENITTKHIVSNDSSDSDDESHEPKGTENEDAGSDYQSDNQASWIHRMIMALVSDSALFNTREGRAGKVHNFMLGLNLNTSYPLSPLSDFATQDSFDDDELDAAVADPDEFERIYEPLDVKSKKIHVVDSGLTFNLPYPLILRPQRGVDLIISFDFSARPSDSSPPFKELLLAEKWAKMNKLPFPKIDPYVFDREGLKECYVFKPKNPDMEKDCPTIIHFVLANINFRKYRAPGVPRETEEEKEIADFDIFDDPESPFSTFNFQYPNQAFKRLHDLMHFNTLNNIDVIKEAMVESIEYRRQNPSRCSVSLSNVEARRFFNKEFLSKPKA
Kind of assay: Coumarine Assay. Type of assay: biochemical. The settings on record: 60 μM 7-hydroxycoumarinyl 6-heptenoate substrate, 4 μg cPLA2, pH 7.5, fluorescence ex 360 nm / em 460 nm; read-out: Coumarin IC50.
For orientation: IC50 means the point on the concentration scale where inhibition reaches its midpoint. Turning to `O=C(O)c1ccc(OCCc2c(CCNS(=O)(=O)Cc3ccc(Cl)c(Cl)c3)n(C(c3ccccc3)c3ccccc3)c3ccc(Cl)cc23)cc1` [Example 10, 4-{2-[1-Benzhydryl-5-chloro-2-(2-{[(3,4-dichlorobenzyl)sulfonyl]amino}-ethyl)-1H-indol-3-yl]ethoxy}benzoic acid], the IC50 is 570 nM.

Turning to `O=C(O)c1ccc(OCCc2c(CCNS(=O)(=O)Cc3ccc(Cl)cc3)n(C(c3ccccc3)c3ccccc3)c3ccc(Cl)cc23)cc1` [Example 15, 4-{2-[1-Benzhydryl-5-chloro-2-(2-{[(4-chlorobenzyl)sulfonyl]amino}-ethyl)-1H-indol-3-yl]ethoxy}benzoic acid], the IC50 came out at 630 nM.

`CS(=O)(=O)NCCc1c(CCOc2ccc(C(=O)O)cc2)c2cc(Cl)ccc2n1C(c1ccccc1)c1ccccc1` [Example 45, 4-[2-(1-benzhydryl-5-chloro-2-(2-[(methylsulfonyl)amino]ethyl)-1H-indol-3-yl]ethoxy}benzoic acid]: the IC50 amounted to 4700 nM.

Consider `O=C(O)c1ccc(OCCc2c(CCNS(=O)(=O)Cc3ccccc3)n(C(c3ccccc3)c3ccccc3)c3cc(Cl)ccc23)cc1` [Example 105, 4-{2-[1-Benzhydryl-6-chloro-2-(2-phenylmethanesulfonylamino-ethyl)-1H-indol-3-yl]-ethoxy}-benzoic acid], for which the IC50 was 650 nM.

For the molecule `O=C(O)c1ccc(OCCc2c(CCNS(=O)(=O)Cc3cc(Cl)cc(Cl)c3)n(C(c3ccccc3)c3ccccc3)c3ccc(Cl)cc23)cc1` [Example 11, 4-{2-[1-Benzhydryl-5-chloro-2-(2-{[(3,5-dichlorobenzyl)sulfonyl]amino}-ethyl)-1H-indol-3-yl]ethoxy}benzoic acid], the 50% inhibitory concentration (IC50) was 450 nM.

As for `O=C(O)c1ccc(OCCc2c(CCNS(=O)(=O)c3ccccc3)n(C(c3ccccc3)c3ccccc3)c3ccc(Cl)cc23)cc1` [Example 46, 4-[2-(1-benzhydryl-5-chloro-2-{2-[(phenylsulfonyl)amino]ethyl}-1H-indol-3-yl]ethoxy}benzoic acid], the IC50 was 4800 nM.
